Measured values published in patent US8383617B2, “Treatment of protein aggregation diseases” (priority 2007, dated 2013).

By UniProt entry, the sequences of proteins in these tests, tags left out. Residues count along the entry.
UniProt P05067, 672-711: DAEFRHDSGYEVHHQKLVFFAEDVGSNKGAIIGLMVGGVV

Biological target: aggregated beta-amyloid peptide (Homo sapiens, UniProt P05067)
Conditions: peptide aggregated three days at 37° C., then incubated overnight with compound, FIG. 4

For `CC(CN(C)C)CN1c2ccccc2CCc2ccccc21` (stereo not shown) [Trimipramine, trimipramine], the “disaggregation of preformed amyloid aggregates by PAGE” value was “did not have a disaggregation function”.
